Data from US20260382533A1, “OCULAR DRUG DELIVERY” (published 2026).

Legend:
corneal wounds = conditions: eye drops; cited from earlier work
[1] = test system: human corneal fibroblast (hCF) cells; assay: MTT cell viability, human corneal fibroblasts
Procedure: The inventors evaluated the antifibrotic theramem safety in vitro with human corneal epithelial (hCEC) and human corneal fibroblast (hCF) cells. […] However, treatment with three and four theramems corresponding to a higher drug concentration (9 and 12 μg of NIN) caused a decrease in the number of live cells. The cytotoxic effect was more pronounced in hCF cell cultures.
Evaluation of Nin-theramem toxicity in vitro: Potential cell toxicity of the NIN-theramem was studied using human corneal epithelial cells (hCEC) and human corneal fibroblast (hCF) cells. NIN-theramems were cut into 2 mm diameter and placed in each well of a flat bottom well plate to test the cell toxicity effect of the 3D-bioprinted Theramems. The cell lines were incubated with 1, 2, 3 and 4 NIN-theramems with 3 μg, 6 μg, 9 μg and 12 μg drug respectively. The hCEC and hCF cells were added to the wells with or without the theramems at a seeding density of 10×10^3 cells per well. The cells were kept in an incubation chamber at 37 °C and 5% CO2 throughout the study. After 48 hours the cell viability was measured against cells without treatment by MTT assay using a plate reader (CLARIOstar BMG LABTECH GmbH, Germany).

[2] = test system: human corneal keratocytes; assay: TGF-β induced corneal keratocyte to myofibroblast differentiation in vitro (α-SMA staining); conditions: TGF-β (10 ng/ml) then NIN (10 μg), 72 h; vs TGF-β only
Excerpt: FIGS. 7A-7H. NIN regulated corneal keratocyte to myofibroblast differentiation. […] Mouse corneal sections stained with α-SMA for fibroblast and myofibroblast density: Healthy (FIG. 7D); PBS treated (control) (FIG. 7E); and NIN-theramem treated corneas (FIG. 7F). […] Scale bar: 100 μm. Mean differences of the groups were considered significant at **P<0.01.
To determine the effect of NIN on regulating the TGF-β induced corneal keratocyte (CKC) to myofibroblast (MFB) differentiation, the inventors treated CKC with TGF-β (10 ng/ml) followed by NIN (10 μg) for 72 hours. […] The inventors further characterized the CKC to MFB differentiation in vivo in a mouse OB model. To evaluate the antifibrotic efficacy of the NIN-theramem, the OB mice were treated with NIN-theramems on alternate days for 14 days. […] In this study, we quantified 3 subsets of fibroblasts: α-SMA positive myofibroblasts associated with corneal haze and scar formation, S100 positive fibroblasts that promote angiogenesis, and SCA-1 positive fibroblasts associated with progenitor mesenchymal stromal cells. […]
Evaluation of NIN-Theramem ability to regulate corneal scarring in vitro: The ability of NIN-theramem to regulate corneal scarring was evaluated by determining the effect of NIN on modulating TGF-β induced transition of corneal keratocyte (CKC) to myofibroblasts. […]

fibroblasts = conditions: multiple resident fibroblast populations; cited from earlier work
[3] = test system: platelet-derived growth factor (PDGF) receptors; conditions: cited from earlier work
[4] = test system: fibroblast growth factor (FGF) receptors; conditions: cited from earlier work
[5] = test system: vascular endothelial growth factor (VEGF) receptors; conditions: cited from earlier work

C[C@]12C=CC(=O)C=C1CC[C@@H]1[C@@H]2[C@@H](O)C[C@@]2(C)[C@H]1CC[C@]2(O)C(=O)CO
Effect on wound healing process (corneal wounds): delay the wound healing process
Prevention of corneal scarring (corneal wounds): ineffective in preventing corneal scarring

COC(=O)c1ccc2c(c1)NC(=O)/C2=C(\Nc1ccc(N(C)C(=O)CN2CCN(C)CC2)cc1)c1ccccc1
Decrease in live hCF cells ([1]; 12 μg NIN, 48 h): approximately 50%
Cytotoxic effect at higher NIN concentration ([1]; hCF, "29 μg" as printed): cytotoxic effect
Effect on live hCF cells ([1]; up to 6 μg NIN): negligible effect on live hCF cells
Safely tolerated NIN amount in hCF cells ([1]; up to, 48 h): Up to 6 μg
α-SMA staining of TGF-β treated keratocytes [2]: did not exhibit α-SMA antibody staining
Fibroblast proliferation and myofibroblast trans-differentiation (fibroblasts): inhibits fibroblast proliferation and the myofibroblast (MFB) trans-differentiation
Activity on PDGF receptors [3]: known modulatory activity
Activity on FGF receptors [4]: known modulatory activity
Activity on VEGF receptors [5]: known modulatory activity

CC(=O)[C@@]1(O)CC[C@H]2[C@@H]3C[C@H](C)C4=CC(=O)C=C[C@]4(C)[C@@]3(F)[C@@H](O)C[C@@]21C
Effect on wound healing process (corneal wounds): delay the wound healing process
Prevention of corneal scarring (corneal wounds): ineffective in preventing corneal scarring

C[C@@H]1C[C@H]2[C@@H]3CCC4=CC(=O)C=C[C@]4(C)[C@@]3(F)[C@@H](O)C[C@]2(C)[C@@]1(O)C(=O)CO
Effect on wound healing process (corneal wounds): delay the wound healing process
Prevention of corneal scarring (corneal wounds): ineffective in preventing corneal scarring
